Experiment [1] addresses T1, Galectin-4 (Homo sapiens) (UniProt P56470).
T1 sequence (whole entry): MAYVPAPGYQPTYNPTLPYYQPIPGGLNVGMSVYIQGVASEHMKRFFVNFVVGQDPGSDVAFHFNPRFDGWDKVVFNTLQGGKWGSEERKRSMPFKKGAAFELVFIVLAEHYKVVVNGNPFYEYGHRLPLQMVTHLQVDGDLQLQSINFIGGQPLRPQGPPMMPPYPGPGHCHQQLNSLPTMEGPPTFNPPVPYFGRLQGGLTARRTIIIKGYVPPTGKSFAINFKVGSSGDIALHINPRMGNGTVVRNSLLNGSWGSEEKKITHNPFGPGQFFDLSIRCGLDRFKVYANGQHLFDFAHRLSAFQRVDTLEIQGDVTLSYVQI
Kind of experiment: Binding affinity at recombinant human C-terminal Galectin 4 expressed in Escherichia coli BL21 at 2 mM incubated for 5 mins by fluorescence anisotropy assay.

For experiment [2], the target named is T1, Galectin-4 (Homo sapiens). Kind of experiment: Binding affinity at recombinant human N-terminal Galectin 4 expressed in Escherichia coli BL21 at 2 mM incubated for 5 mins by fluorescence anisotropy assay.
The species entered for a further experiment is Homo sapiens. In words: Selectivity index, ratio of Kd for recombinant human C-terminal Galectin 9 expressed in Escherichia coli BL21 to Kd for recombinant human N-terminal Galectin 9 expressed in Escherichia coli BL21.

The source made the active and inactive calls. The rule behind the calls is not given here.

On to `CO[C@@H]1O[C@H](CO)[C@H](O)[C@@H](Nc2cccc(Cl)c2)[C@H]1O`, for which the outcome in experiment [1] and in experiment [2] was inactive.
With `CO[C@@H]1O[C@H](CO)[C@H](O)[C@@H](Nc2ccc(C)cc2)[C@H]1O`, the outcome in experiment [1] and in experiment [2] was inactive.
As to `CO[C@@H]1O[C@H](CO)[C@H](O)[C@@H](Nc2ccccc2)[C@H]1O`, the result in experiment [1] and in experiment [2] was inactive.
With `CO[C@@H]1O[C@H](CO)[C@H](O)[C@H](Nc2cccc(C)c2)[C@H]1O`, the outcome in experiment [2] was inactive.
Regarding `CO[C@@H]1O[C@H](CO)[C@H](O)[C@H](Nc2ccc(C)cc2)[C@H]1O`, the outcome in experiment [1] was inactive.
`CO[C@@H]1O[C@H](CO)[C@H](O)[C@H](Nc2ccccc2)[C@H]1O`: the result in experiment [1] and in experiment [2] was inactive.
With `CO[C@@H]1O[C@H](CO)[C@H](O)[C@@H](Nc2ccc(F)c(F)c2)[C@H]1O`, the outcome in experiment [2] was inactive.
Still for that read-out and setting: next, `CO[C@@H]1O[C@H](CO)[C@H](O)[C@H](Nc2ccc(F)c(F)c2)[C@H]1O`: “inactive”.
In the case of `COc1cccc(N[C@@H]2[C@@H](O)[C@@H](CO)O[C@@H](OC)[C@@H]2O)c1`, the result in experiment [1] and in experiment [2] was inactive.
Consider `CO[C@@H]1O[C@H](CO)[C@H](O)[C@@H](Nc2cccc(C)c2)[C@H]1O`, for which the result in experiment [1] and in experiment [2] was inactive.
Regarding `COc1ccc(N[C@@H]2[C@@H](O)[C@@H](CO)O[C@@H](OC)[C@@H]2O)cc1`, the result in experiment [1] and in experiment [2] was inactive.
Turning to `COc1cccc(N[C@H]2[C@@H](O)[C@@H](Sc3ccc(Cl)c(Cl)c3)O[C@H](CO)[C@@H]2O)c1`, the Ratio in the experiment listed under Homo sapiens stood at 5.
